Usually Ki stands for the dissociation constant of the complex between target and ligand, obtained from inhibition or displacement.

Amino acid sequences for entries named in this document (tags omitted).
UniProt P08173, whole entry: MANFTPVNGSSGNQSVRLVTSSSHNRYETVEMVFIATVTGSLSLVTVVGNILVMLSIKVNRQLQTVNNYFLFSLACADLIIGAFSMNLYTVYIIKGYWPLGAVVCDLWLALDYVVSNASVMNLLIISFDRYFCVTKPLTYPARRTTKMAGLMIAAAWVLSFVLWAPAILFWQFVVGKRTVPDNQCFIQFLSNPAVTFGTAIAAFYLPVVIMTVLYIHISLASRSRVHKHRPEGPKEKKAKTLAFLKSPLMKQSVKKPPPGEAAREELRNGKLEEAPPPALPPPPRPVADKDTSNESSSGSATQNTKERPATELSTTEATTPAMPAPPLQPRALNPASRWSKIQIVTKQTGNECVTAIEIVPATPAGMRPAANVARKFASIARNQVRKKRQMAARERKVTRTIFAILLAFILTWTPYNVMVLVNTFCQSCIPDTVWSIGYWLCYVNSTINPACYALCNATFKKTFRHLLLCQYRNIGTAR

The target in assay [1] is T1, human M4 receptor (Homo sapiens, UniProt P08173). Put plainly: Live-cell microscopy competition binding with UR-CG072 on CHO-K1-hM4R cells.
Assay [2] addresses T1, human M4 receptor. Briefly: FA competition binding with UR-MK342 as reporter probe, M4 receptor BBV particles.
Assay [3] deals with T1, human M4 receptor. Put plainly: FA competition binding with UR-CG072 as reporter probe, M4 receptor BBV particles.

For `CN1[C@@H]2C[C@@H](OC(=O)[C@H](CO)c3ccccc3)C[C@H]1[C@@H]1O[C@@H]12` [scopolamine], the Ki is 0.661 nM on human M4 receptor [1], 5.01 nM at human M4 receptor [2] and 7.41 nM on human M4 receptor [3].
